This assay concerns the target Sodium channel protein type 9 subunit alpha (Homo sapiens, UniProt Q15858). The assay can be described thus: Inhibition of human Nav1.7 expressed in HEK293 cells assessed as inward peak current by ion-works quattro patch clamp electrophysiology method. In kind it is cell-based. On the technique in general: The patch-clamp technique gives a direct electrical read-out from membranes.

By UniProt entry, the sequences of proteins in these tests, tags left out.
UniProt Q15858, whole entry: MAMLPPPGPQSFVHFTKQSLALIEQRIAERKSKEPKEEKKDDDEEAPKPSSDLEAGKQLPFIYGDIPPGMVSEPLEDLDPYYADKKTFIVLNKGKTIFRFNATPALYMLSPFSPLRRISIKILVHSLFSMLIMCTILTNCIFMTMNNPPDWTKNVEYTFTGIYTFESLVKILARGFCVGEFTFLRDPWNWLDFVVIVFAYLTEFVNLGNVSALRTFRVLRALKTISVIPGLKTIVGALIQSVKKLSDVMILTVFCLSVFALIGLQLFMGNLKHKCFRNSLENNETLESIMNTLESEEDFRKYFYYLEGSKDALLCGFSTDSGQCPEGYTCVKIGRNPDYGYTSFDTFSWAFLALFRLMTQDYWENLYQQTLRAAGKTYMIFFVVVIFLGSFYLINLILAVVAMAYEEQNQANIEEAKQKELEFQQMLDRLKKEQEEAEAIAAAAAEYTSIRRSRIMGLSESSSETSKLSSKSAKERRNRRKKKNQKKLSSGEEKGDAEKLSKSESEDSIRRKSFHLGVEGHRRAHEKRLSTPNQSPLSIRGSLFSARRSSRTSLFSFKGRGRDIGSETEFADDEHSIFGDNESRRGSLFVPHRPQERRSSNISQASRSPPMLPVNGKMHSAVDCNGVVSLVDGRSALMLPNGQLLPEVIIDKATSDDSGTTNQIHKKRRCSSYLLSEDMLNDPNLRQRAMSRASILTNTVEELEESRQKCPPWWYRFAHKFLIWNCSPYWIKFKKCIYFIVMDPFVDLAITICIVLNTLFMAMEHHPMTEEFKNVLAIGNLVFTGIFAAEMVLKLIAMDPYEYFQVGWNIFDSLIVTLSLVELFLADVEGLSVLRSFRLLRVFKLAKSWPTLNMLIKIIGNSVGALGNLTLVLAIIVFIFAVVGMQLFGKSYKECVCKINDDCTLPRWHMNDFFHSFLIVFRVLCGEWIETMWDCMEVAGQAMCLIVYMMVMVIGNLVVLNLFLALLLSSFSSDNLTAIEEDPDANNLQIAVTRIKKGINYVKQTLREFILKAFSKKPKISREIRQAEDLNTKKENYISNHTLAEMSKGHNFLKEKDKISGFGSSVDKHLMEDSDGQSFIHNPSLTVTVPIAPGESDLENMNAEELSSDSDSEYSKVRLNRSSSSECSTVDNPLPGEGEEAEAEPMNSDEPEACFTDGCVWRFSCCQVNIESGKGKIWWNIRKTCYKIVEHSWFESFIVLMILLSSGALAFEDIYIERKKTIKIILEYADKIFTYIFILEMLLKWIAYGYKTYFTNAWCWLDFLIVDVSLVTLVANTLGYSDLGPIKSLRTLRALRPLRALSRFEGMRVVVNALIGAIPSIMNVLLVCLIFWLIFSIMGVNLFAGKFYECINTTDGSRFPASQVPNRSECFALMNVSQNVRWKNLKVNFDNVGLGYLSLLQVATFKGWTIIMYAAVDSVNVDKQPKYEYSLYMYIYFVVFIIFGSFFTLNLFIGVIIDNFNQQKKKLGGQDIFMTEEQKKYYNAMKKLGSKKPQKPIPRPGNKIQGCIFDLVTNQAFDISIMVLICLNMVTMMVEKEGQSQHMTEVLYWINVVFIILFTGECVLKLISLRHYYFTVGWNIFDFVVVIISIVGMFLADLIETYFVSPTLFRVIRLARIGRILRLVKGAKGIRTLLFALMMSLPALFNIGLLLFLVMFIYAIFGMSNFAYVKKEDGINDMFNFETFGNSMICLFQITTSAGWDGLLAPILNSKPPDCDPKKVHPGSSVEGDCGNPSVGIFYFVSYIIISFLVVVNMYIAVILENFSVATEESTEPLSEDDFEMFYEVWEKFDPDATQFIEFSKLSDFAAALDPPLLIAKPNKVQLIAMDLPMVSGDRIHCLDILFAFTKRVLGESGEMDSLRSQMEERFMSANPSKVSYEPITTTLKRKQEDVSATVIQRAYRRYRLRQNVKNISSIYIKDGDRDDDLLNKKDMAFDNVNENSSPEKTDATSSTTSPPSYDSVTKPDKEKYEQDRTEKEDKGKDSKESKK

For the compound `CC[C@H](C)[C@@H]1NC(=O)[C@@H]2CSSC[C@@H]3NC(=O)[C@H](C(C)C)NC(=O)[C@H](CC(C)C)NC(=O)[C@H](CC(N)=O)NC(=O)[C@@H]4CCCN4C(=O)[C@H](CCCNC(=N)N)NC(=O)[C@H](CSSC[C@H](NC(=O)[C@@H](N)CC(=O)O)C(=O)N[C@@H](CC(C)C)C(=O)NCC(=O)N[C@@H](Cc4ccccc4)C(=O)N[C@@H](CCSC)C(=O)N[C@@H](CCCNC(=N)N)C(=O)N[C@@H](CCCCN)C(=O)N2)NC(=O)[C@H](CSSC[C@@H](C(=O)N[C@@H](CCCCN)C(=O)N[C@@H](Cc2ccc(O)cc2)C(=O)N[C@H](C(=O)N[C@@H](Cc2ccccc2)C(N)=O)C(C)C)NC(=O)[C@H](Cc2cccc4ccccc24)NC(=O)[C@H](CCCCN)NC(=O)[C@H](Cc2cnc[nH]2)NC(=O)[C@H]([C@@H](C)O)NC(=O)[C@H](CCCNC(=N)N)NC(=O)[C@H](CO)NC3=O)NC(=O)[C@H](CCCCN)NC(=O)[C@H](CC(=O)O)NC(=O)[C@H](CC(N)=O)NC(=O)[C@H](CC(=O)O)NC(=O)[C@@H]2CCCN2C1=O`, the half-maximal inhibitory concentration (IC50) (as a rule, the concentration at which inhibition is half-maximal) is 0.4 µM.
